PubChem BioAssay AID995 (National Center for Advancing Translational Sciences (NCATS), 2007)
The list shows a part of the results, in another mix than the full data. Results filed as inconclusive are left out. The source made the active and inactive calls. Calls follow the shape of the dose curve; as a rule, active = well fitted inhibition curve with a large enough effect; inconclusive = small, poorly fitted or top-dose-only effect; inactive = no such curve, though single readings can be large or run the other way.

Assay: qHTS Assay for Inhibitors of the ERK Signaling Pathway using a Homogeneous Screening Assay; also: nearly all actives have a fitted effect of over 55% in size
Conditions: HEK293-V1b, vasopressin-stimulated pERK AlphaScreen; at 57.5 µM (top of the series)
% is scaled to controls: 0 for no effect and ±100 for the full control effect.

Row | SMILES | activity, negative = inhibition
1 | O=[N+]([O-])C(Cl)(Cl)Cl | inactive: 10%
2 | CN(CCCl)CCCl | inactive: 7.54%
